“And” between values parts separate entries of the source, which are not always exact repeats. Identical values can stand only once. Only a part is listed here, and it is no random draw.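 Percent growth is the endpoint: 0 to 100 indicates growth inhibition (40 means 60% inhibition), 0 means no net growth, and negative values indicate cell death.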 The source made the active and inactive calls. The calls were made as follows: active = growth percent below 10; inactive = the rest.
system: OVCAR-3 ovarian; experiment: NCI-60 one-dose screen, 48 h (100 = growth as untreated, 0 = no growth, -100 = all killed); settings: 10 µM unless noted

| SMILES | growth |
| --- | --- |
| COc1cc([N+](=O)[O-])c([N+](=O)[O-])cc1N | inactive: 115% |
| Cc1ccc(Sc2ccc([N+](=O)[O-])cc2[N+](=O)[O-])c([N+](=O)[O-])c1 | active: 6.72% |
| CC(=O)Nc1ccc([As](=O)(O)O)cc1 | inactive: 108% |
| ClCCN1CCc2ccccc2C1 | inactive: 112% |
| CCOC(=O)NC(C)(CCC(C)(NC(=O)OCC)P(=O)(O)Nc1ncccn1)P(=O)(O)Nc1ncccn1 (stereo unspecified) | inactive: 116% [100 µM] |
| CCSC(O)C(Cl)(Cl)Cl (stereo unspecified) | inactive: 105% |
| COP(=O)(OC)N1CC1c1ccccc1 (stereo unspecified) | inactive: 125% |
| O=P1(N(CCCl)CCCl)OCCCS1 (stereo unspecified) | inactive: 112% |
| CC[C@H](C)[C@@H]1NC(=O)/C(=C(\C)O)C1=O | inactive: 114% |
| CCN(CCCl)C(Cc1ccccc1)c1ccccc1 (stereo unspecified) | inactive: 108% |
| [N-]=[N+]=NS(=O)(=O)c1ccc([N+](=O)[O-])cc1 | inactive: 105% |
| O=P1(N(CCCl)CCCl)OCCCN1CCCl (stereo unspecified) | inactive: 114% |
| O=C1CSC(C(Cl)(Cl)Cl)N1c1ccc(Cl)cc1 (stereo unspecified) | inactive: 111% |
| ClC1(Cl)SC(Cl)(Cl)C(Cl)(Cl)C1(Cl)Cl | inactive: 107% |
| Nc1ccc(CCCCOc2ccccc2)cc1 | inactive: 76.4% |
| CCN(CCCl)c1ccc(CCC(=O)O)cc1 | inactive: 108% |
| O=C(OC1CN2CCC1CC2)c1ccccc1 (stereo unspecified) | inactive: 112% |
| Nc1nnc(N)nn1 | inactive: 110% |
| COP(OC)c1ccc(C)cc1 | inactive: 99.6% |

| SMILES | growth |
| --- | --- |
| CCOP(=O)(NC1CCCCC1)OCC | inactive: 106% |
| CC(Cl)CN(CC(C)Cl)C(=O)OCC(N)C(=O)O (stereo unspecified) | inactive: 114% and inactive: 126% |
| O=S1(=O)CC(Sc2ccccc2)[C@@H](Cl)C1 (stereo partly specified) | inactive: 109% |
| O=C(CCC(=O)Oc1c(Cl)cc([N+](=O)[O-])cc1[N+](=O)[O-])Oc1c(Cl)cc([N+](=O)[O-])cc1[N+](=O)[O-] | inactive: 120% |
| COc1cccc([As]=O)c1 (stereo unspecified) | active: -92.1% |
| c1cc(-c2nn[nH]n2)ccc1-c1nn[nH]n1 | inactive: 107% |
| CCN(CCCl)Cc1ccccc1 | inactive: 115% |
| CCCCOP(=O)(OCCCC)N1CCCC1C(=O)O (stereo unspecified) | inactive: 117% |
| CCN(CCCl)C1c2ccccc2-c2ccccc21 | inactive: 102% |
| CCOP(=O)(CCBr)OCC | inactive: 114% and inactive: 118% |
| ClCCNCc1ccccc1 | inactive: 99.5% |
| O=[As]c1ccc(S(=O)(=O)Nc2ccccc2)cc1 (stereo unspecified) | inactive: 19.2% |
| CCc1cc(O)c([N+](=O)[O-])c(C)c1[N+](=O)[O-] | inactive: 116% |
| Clc1ccc(P(Cl)Cl)cc1 | inactive: 116% |
| O=[As](O)(c1ccc(O)cc1)c1ccccc1O | inactive: 108% |
| CCCCCCC(C)OP(O)OC(C)CCCCCC (stereo unspecified) | inactive: 117% |
| NC(=O)Nc1ccc([As](=O)(O)O)cc1 | inactive: 117% |
| O=[N+]([O-])c1cc(Cl)cc([N+](=O)[O-])c1O | inactive: 115% |
| ClP1Nc2cncnc2N1 (stereo unspecified) | inactive: 113% |

system: HS 578T breast; experiment: as above; settings: 10 µM unless noted

| SMILES | growth |
| --- | --- |
| COc1cc([N+](=O)[O-])c([N+](=O)[O-])cc1N | inactive: 101% |
| Cc1ccc(Sc2ccc([N+](=O)[O-])cc2[N+](=O)[O-])c([N+](=O)[O-])c1 | inactive: 22.4% |
| CC(=O)Nc1ccc([As](=O)(O)O)cc1 | inactive: 98.5% |
| ClCCN1CCc2ccccc2C1 | inactive: 96.8% |
| CCOC(=O)NC(C)(CCC(C)(NC(=O)OCC)P(=O)(O)Nc1ncccn1)P(=O)(O)Nc1ncccn1 (stereo unspecified) | inactive: 115% [100 µM] |
| CCSC(O)C(Cl)(Cl)Cl (stereo unspecified) | inactive: 102% |
| COP(=O)(OC)N1CC1c1ccccc1 (stereo unspecified) | inactive: 104% |
| O=P1(N(CCCl)CCCl)OCCCS1 (stereo unspecified) | inactive: 120% |
| CC[C@H](C)[C@@H]1NC(=O)/C(=C(\C)O)C1=O | inactive: 102% |
| CCN(CCCl)C(Cc1ccccc1)c1ccccc1 (stereo unspecified) | inactive: 92.3% |
| [N-]=[N+]=NS(=O)(=O)c1ccc([N+](=O)[O-])cc1 | inactive: 93.7% |
| O=P1(N(CCCl)CCCl)OCCCN1CCCl (stereo unspecified) | inactive: 101% |
| O=C1CSC(C(Cl)(Cl)Cl)N1c1ccc(Cl)cc1 (stereo unspecified) | inactive: 98.4% |
| ClC1(Cl)SC(Cl)(Cl)C(Cl)(Cl)C1(Cl)Cl | inactive: 109% |
| Nc1ccc(CCCCOc2ccccc2)cc1 | inactive: 86% |
| CCN(CCCl)c1ccc(CCC(=O)O)cc1 | inactive: 92.1% |
| O=C(OC1CN2CCC1CC2)c1ccccc1 (stereo unspecified) | inactive: 101% |
| Nc1nnc(N)nn1 | inactive: 101% |
| COP(OC)c1ccc(C)cc1 | inactive: 108% |

| SMILES | growth |
| --- | --- |
| CCOP(=O)(NC1CCCCC1)OCC | inactive: 98.3% |
| CC(Cl)CN(CC(C)Cl)C(=O)OCC(N)C(=O)O (stereo unspecified) | inactive: 119% |
| O=S1(=O)CC(Sc2ccccc2)[C@@H](Cl)C1 (stereo partly specified) | inactive: 97.5% |
| O=C(CCC(=O)Oc1c(Cl)cc([N+](=O)[O-])cc1[N+](=O)[O-])Oc1c(Cl)cc([N+](=O)[O-])cc1[N+](=O)[O-] | inactive: 111% |
| COc1cccc([As]=O)c1 (stereo unspecified) | active: 3.89% |
| c1cc(-c2nn[nH]n2)ccc1-c1nn[nH]n1 | inactive: 93% |
| CCN(CCCl)Cc1ccccc1 | inactive: 115% |
| CCCCOP(=O)(OCCCC)N1CCCC1C(=O)O (stereo unspecified) | inactive: 95.7% |
| CCN(CCCl)C1c2ccccc2-c2ccccc21 | inactive: 99.5% |
| CCOP(=O)(CCBr)OCC | inactive: 109% and inactive: 95.4% |
| ClCCNCc1ccccc1 | inactive: 107% |
| O=[As]c1ccc(S(=O)(=O)Nc2ccccc2)cc1 (stereo unspecified) | inactive: 65% |
| CCc1cc(O)c([N+](=O)[O-])c(C)c1[N+](=O)[O-] | inactive: 106% |
| Clc1ccc(P(Cl)Cl)cc1 | inactive: 120% |
| O=[As](O)(c1ccc(O)cc1)c1ccccc1O | inactive: 97% |
| CCCCCCC(C)OP(O)OC(C)CCCCCC (stereo unspecified) | inactive: 108% |
| NC(=O)Nc1ccc([As](=O)(O)O)cc1 | inactive: 115% |
| O=[N+]([O-])c1cc(Cl)cc([N+](=O)[O-])c1O | inactive: 105% |
| ClP1Nc2cncnc2N1 (stereo unspecified) | inactive: 114% |
